“Also recorded” adds a separate entry of the source.
System: HEK 293 kidney cells
Experiment: Cellular uptake of zinc in HEK 293 kidney cells (BioVision colorimetric zinc uptake assay kit)
Assay type: cell-based
Conditions: absorbance at 560 nm
Description: Assay was run on BioVision colorimetric zinc uptake assay kit. Absorbance was evaluated at 560 nm. Uptake was evaluated with HEK 293 kidney cells.
Assay was run on BioVision colorimetric zinc uptake assay kit. Uptake was evaluated with HEK 293 kidney cells. Evaluation of cellular uptake relative to percent composition of zinc was evaluated.

zinc triglycine [ZnG3]
cellular uptake compared with zinc salts: uptake comparable to that of both salts ZnCl2 and Zn(NO3)2; also recorded: comparable cellular uptake to ZnCl2

From patent US20210369768A1, “METAL DI-AMINO ACID CHELATES OR METAL TRI-AMINO ACID CHELATES” (Balchem Corporation, priority 2020, published 2021)
